The values that follow come from patent publication US20240366783A1.

In this assay the target is antigen HER2 (UniProt P04626). Nature of the assay: ELISA (heading of Example 10 says Biacore).

For the substance Kadcyla (T-DM1) (antibody), the Kd (in general, the equilibrium constant for the complex coming apart) was determined as 6.37 pM.
